In PMC7533695, “Supertertiary protein structure affects an allosteric network” (Proceedings of the National Academy of Sciences of the …, 2020) one finds Kd data, which are given here for 1 compound.

The target in test [1] is T1, PSD-95 PDZ3 (pseudo WT, F337W) (Homo sapiens, UniProt P78352, F337W).
T1 construct: His tag (only implied by nickel column); made in house; host or cells: Escherichia coli BL21(DE3) pLys
The experiment in a line: Stopped-flow binding and displacement kinetics, PDZ3 WT. The conditions noted are these: koff/kon, pH 7.45, 10 °C, average of replicates where replicated.

For test [2], the target named is T2, PSD-95 PDZ3 A347G (F337W) (Homo sapiens, UniProt P78352, A347G/F337W).
T2 construct: His tag (only implied by nickel column); made in house; host or cells: Escherichia coli BL21(DE3) pLys
The experiment in a line: Stopped-flow kinetics, PDZ3 A347G. It counts as binding. The conditions noted are these: koff/kon, pH 7.45, 10 °C.

The target in test [3] is T3, PSD-95 PDZ3 R354A (F337W) (Homo sapiens, UniProt P78352, F337W/R354A).
T3 construct: His tag (only implied by nickel column); made in house; host or cells: Escherichia coli BL21(DE3) pLys
The experiment in a line: Stopped-flow kinetics, PDZ3 R354A. It counts as binding. The conditions noted are these: koff/kon, pH 7.45, 10 °C.

Test [4] addresses T4, PSD-95 PDZ3 V362A (F337W) (Homo sapiens, UniProt P78352, F337W/V362A).
T4 construct: His tag (only implied by nickel column); made in house; host or cells: Escherichia coli BL21(DE3) pLys
Kind of test: Stopped-flow kinetics, PDZ3 V362A. It counts as binding. The following applies: koff/kon, pH 7.45, 10 °C.

Test [5] addresses T5, PSD-95 PDZ3 A376G (F337W) (Homo sapiens, UniProt P78352, A376G/F337W).
T5 construct: His tag (only implied by nickel column); made in house; host or cells: Escherichia coli BL21(DE3) pLys
The experiment in a line: Stopped-flow kinetics, PDZ3 A376G. The conditions noted are these: koff/kon, pH 7.45, 10 °C. Type of test: binding.

Test [6] has as its target T6, PSD-95 PDZ3 F400A (F337W) (Homo sapiens, UniProt P78352, F337W/F400A).
T6 construct: made in house; host or cells: Escherichia coli BL21(DE3) pLys
The experiment in a line: Stopped-flow kinetics, PDZ3 F400A. It counts as binding. The following applies: koff/kon, pH 7.45, 10 °C.

The target in test [7] is T7, PSD-95 PDZ3-SH3-GK (PSG) (pseudo WT, F337W) (Homo sapiens, UniProt P78352, F337W).
T7 construct: PDZ3, SH3, and GK form another supramodule, denoted PSG; made in house; host or cells: Escherichia coli BL21(DE3) pLys
The experiment in a line: Stopped-flow binding and displacement kinetics, PSG WT. The following applies: koff/kon, pH 7.45, 10 °C.

The target of test [8] is T8, PSD-95 PDZ3-SH3-GK (PSG) G322A (F337W) (Homo sapiens, UniProt P78352, F337W/G322A).
T8 construct: PDZ3, SH3, and GK form another supramodule, denoted PSG; made in house; host or cells: Escherichia coli BL21(DE3) pLys
The experiment in a line: Stopped-flow kinetics, PSG G322A. The following applies: koff/kon, pH 7.45, 10 °C. It counts as binding.

The target in test [9] is T9, PSD-95 PDZ3-SH3-GK (PSG) F325A (F337W) (Homo sapiens, UniProt P78352, F325A/F337W).
T9 construct: PDZ3, SH3, and GK form another supramodule, denoted PSG; made in house; host or cells: Escherichia coli BL21(DE3) pLys
Kind of test: Stopped-flow kinetics, PSG F325A. The following applies: koff/kon, pH 7.45, 10 °C. Type of test: binding.

Test [10] has as its target T10, PSD-95 PDZ3-SH3-GK (PSG) I327V (F337W) (Homo sapiens, UniProt P78352, F337W/I327V).
T10 construct: PDZ3, SH3, and GK form another supramodule, denoted PSG; made in house; host or cells: Escherichia coli BL21(DE3) pLys
The experiment in a line: Stopped-flow kinetics, PSG I327V. It counts as binding. The conditions noted are these: koff/kon, pH 7.45, 10 °C.

Test [11] addresses T11, PSD-95 PDZ3-SH3-GK (PSG) G330A (F337W) (Homo sapiens, UniProt P78352, F337W/G330A).
T11 construct: PDZ3, SH3, and GK form another supramodule, denoted PSG; made in house; host or cells: Escherichia coli BL21(DE3) pLys
Kind of test: Stopped-flow kinetics, PSG G330A. Type of test: binding. The conditions noted are these: koff/kon, pH 7.45, 10 °C.

In test [12] the target is T12, PSD-95 PDZ3-SH3-GK (PSG) E334A (F337W) (Homo sapiens, UniProt P78352, E334A/F337W).
T12 construct: PDZ3, SH3, and GK form another supramodule, denoted PSG; made in house; host or cells: Escherichia coli BL21(DE3) pLys
The experiment in a line: Stopped-flow kinetics, PSG E334A. The following applies: koff/kon, pH 7.45, 10 °C. It counts as binding.

In test [13] the target is T13, PSD-95 PDZ3-SH3-GK (PSG) G335A (F337W) (Homo sapiens, UniProt P78352, F337W/G335A).
T13 construct: PDZ3, SH3, and GK form another supramodule, denoted PSG; made in house; host or cells: Escherichia coli BL21(DE3) pLys
The experiment in a line: Stopped-flow kinetics, PSG G335A. It counts as binding. The conditions noted are these: koff/kon, pH 7.45, 10 °C.

For test [14], the target named is T14, PSD-95 PDZ3-SH3-GK (PSG) A376G (F337W) (Homo sapiens, UniProt P78352, A376G/F337W).
T14 construct: PDZ3, SH3, and GK form another supramodule, denoted PSG; made in house; host or cells: Escherichia coli BL21(DE3) pLys
Kind of test: Stopped-flow kinetics, PSG A376G. It counts as binding. The following applies: koff/kon, pH 7.45, 10 °C.

In test [15] the target is T15, PSD-95 PDZ3-SH3-GK (PSG) F400A (F337W) (Homo sapiens, UniProt P78352, F337W/F400A).
T15 construct: PDZ3, SH3, and GK form another supramodule, denoted PSG; made in house; host or cells: Escherichia coli BL21(DE3) pLys
The experiment in a line: Stopped-flow kinetics, PSG F400A. Type of test: binding. The following applies: koff/kon, pH 7.45, 10 °C.

By Kd is commonly meant the concentration at which binding is half-saturated. Read a high Kd as lower affinity. Take `CCC[C@H](NC(=O)[C@H](CCCCN)NC(=O)[C@H](Cc1ccc(O)cc1)NC(=O)[C@H](CC(N)=O)NC(=O)[C@H](CCCCN)NC(=O)[C@@H](NC(=O)[C@H](CC(=O)O)NC(=O)[C@H](CC(C)C)NC(=O)[C@@H](NC(=O)[C@H](CCCCN)NC(=O)[C@H](CCCCN)NC(=O)CN)C(C)C)[C@@H](C)O)C(=O)N[C@H](C(=O)N[C@@H](CO)C(=O)N[C@H](C(=O)O)C(C)C)[C@@H](C)O` [CRIPTP-3 15 AA]: the Kd in test [1] stood at 9.7 µM; in test [2], 23 µM; in test [3], 9.2 µM; in [4], 8.7 µM; in test [5] it was 17 µM; in test [6], 4.9 µM. In addition, the Kd in test [7] is 1.7 ± 0.2 µM; in [8], 0.34 ± 0.01 µM; in test [9], 3.6 ± 0.2 µM; in [10], 9.2 ± 0.5 µM; in test [11] it was 14 ± 2 µM; in test [12] it was 3.4 ± 0.1 µM. The Kd in test [13] worked out at 0.73 ± 0.02 µM; in test [14], 5.1 ± 0.2 µM; in [15] it was 6 ± 0.3 µM.
